The structures appear in SMILES notation. Only a part is listed here, and it is no random draw. Only a part of the results of these assays is listed, not drawn at random. The source made the active and inactive calls. The rule behind the calls is not given here.

This experiment deals with T1, Ferritin light chain (Equus caballus) (UniProt P02791).
T1 sequence (whole entry): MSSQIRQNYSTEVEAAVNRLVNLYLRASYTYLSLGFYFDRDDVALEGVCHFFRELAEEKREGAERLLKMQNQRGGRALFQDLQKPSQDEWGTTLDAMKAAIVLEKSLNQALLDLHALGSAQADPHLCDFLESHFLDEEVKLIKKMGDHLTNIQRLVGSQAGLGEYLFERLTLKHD
`O=C(O)c1cc(S(=O)(=O)O)ccc1O`: the Potency entry was “inactive”.

These data come from ChEMBL document CHEMBL1201862, “PubChem BioAssay data set” (2004).
